The numbers were not newly measured in patent US20030143670A1, “DNA encoding SNORF44 receptor” (priority 1999, published 2003), which cites them from elsewhere.

Protein sequences, listed by entry. Tags and fused reporters are not part of them.
UniProt P32245, whole entry: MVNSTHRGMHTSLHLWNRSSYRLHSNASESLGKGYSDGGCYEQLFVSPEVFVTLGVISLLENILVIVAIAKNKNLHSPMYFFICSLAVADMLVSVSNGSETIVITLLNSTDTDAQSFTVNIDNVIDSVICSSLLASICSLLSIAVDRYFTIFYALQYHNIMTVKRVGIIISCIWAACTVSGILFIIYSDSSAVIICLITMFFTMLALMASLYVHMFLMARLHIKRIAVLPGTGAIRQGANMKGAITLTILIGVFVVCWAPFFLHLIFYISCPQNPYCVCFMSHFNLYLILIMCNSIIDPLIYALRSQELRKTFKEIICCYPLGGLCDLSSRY

This data set has as its target MC4 (Homo sapiens, UniProt P32245). The settings on record: Schioth et al., 1996; cited from earlier work.

With gamma melanocortin [γ-MSH], the “agonist activity at recombinant MC4 receptor” value is “agonist”.
